These results are taken from US20040053370A1.

The test concerns the target GLP-1 receptor. The experiment in a line: cell-based or functional assay.

Substance Exendin-4 (peptide) returned an In Vitro Activity (% of Val^8-GLP-1) (% of Val^8-GLP-1) of 500.
